A compilation of properties of binary mixtures (doi:10.1021/acs.jpcb.6b12122)

Assay: xn = mol fraction of the nth substance listed
Settings: 298.15 K, 101 kPa

| Structure (SMILES) | viscosity (x1 = 0.5) [mPa·s] | viscosity (x1 = 1) [mPa·s] |
| --- | --- | --- |
| OCCOCCOCCOCCO + CCCC[N+]1(C)CCCC1.O=S(=O)([N-]S(=O)(=O)C(F)(F)F)C(F)(F)F | 50.3 | 46.5 |
| OCCOCCOCCOCCO + CCCC[N+]1(C)CCCCC1.O=S(=O)([N-]S(=O)(=O)C(F)(F)F)C(F)(F)F | – | 45.8 |
| OCCOCCOCCOCCO + CCCC[n+]1ccn(C)c1.O=S(=O)([O-])C(F)(F)F | 53.2 | 45.4 |
| OCCOCCOCCOCCO + CCCC[n+]1ccn(C)c1C.F[B-](F)(F)F | – | 45.6 |
| OCCOCCOCCOCCO + CCCn1cc[n+](C)c1C.O=S(=O)([N-]S(=O)(=O)C(F)(F)F)C(F)(F)F | – | 45.8 |
| OCCOCCOCCOCCO + CC[n+]1ccn(C)c1.O=S(=O)([N-]S(=O)(=O)C(F)(F)F)C(F)(F)F | 37.5 | 46.5 |
| OCCOCCOCCOCCO + C[N+](C)(C)CCO.O=S(=O)([N-]S(=O)(=O)C(F)(F)F)C(F)(F)F | – | 46.5 |
